# Experimental data from PubChem BioAssay (Tox21).
# The list shows a part of the results, in another mix than the full data. Results filed as inconclusive are left out. Active and inactive are the calls of the source. Unless noted, calls come from the whole dose curve; as a rule, active = well fitted curve in the direction sought with a large enough effect in the repeat runs; inconclusive = weak or mixed curves; inactive = no such curve, though single readings can be large; an effect the other way counts as inactive or inconclusive.
# Experiments:
# [1] = qHTS assay for small molecules that induce genotoxicity in human embryonic kidney cells expressing luciferase-tagged ATAD5 - cell viability (AID 651634; calls by dose curve; note: potency is the fitted concentration of half-maximal effect; nearly all actives have a fitted effect of over 25% in size); details: HEK293T ATAD5-luc cells viability, CellTiter-Fluor, 15.5 h
# Method in brief: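 Seeding of 2,000 HEK293T ATAD5-luciferase cells per well preceded pin-tool compound transfer. Plates sat 15.5 hr at 37C under 5% CO2, then fluorescence was read after 30 min with CellTiter-Fluor.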
# [2] = qHTS assay to identify small molecule antagonists of the androgen receptor (AR) signaling pathway using the MDA cell line - cell viability counter screen (AID 743041; note: potency is the fitted concentration of half-maximal effect; nearly all actives have a fitted effect of over 45% in size); details: MDA-kb2 viability, CellTiter-Fluor, 16 h; cells co-treated with R1881 androgen agonist
# Method in brief: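 MDA-kb2 AR-luc human breast carcinoma cells (MMTV-luciferase, AR/GR responsive) were treated with compounds plus R1881 agonist for 16 h at 37 °C. Viability was read as CellTiter-Fluor fluorescence in the same wells as the reporter assay.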
# [3] = qHTS assay to identify aromatase inhibitors - cell viability counter screen (AID 743084); details: MCF-7 aro ERE viability, CellTiter-Fluor, 24 h; series mostly up to 70.3 µM;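 note: cells stimulated with testosterone during compound exposure; potency is the fitted concentration of half-maximal effect; nearly all actives have a fitted effect of over 55% in size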
# [4] = target: Nuclear receptor ROR-gamma (Homo sapiens) (UniProt P51449); assay: qHTS assay to identify small molecule antagonists of the retinoid-related orphan receptor gamma (ROR-gamma) signaling pathway (AID 1159521; note: potency is the fitted concentration of half-maximal effect; nearly all actives have a fitted effect of over 50% in size); details: Tet-on RORgamma CHO cells, RORE-luciferase, 16 h
# [5] = qHTS assay to identify small molecule antagonists of the estrogen related receptor (ERR) signaling pathway from Tox21 library - cell viability counter screen (AID 1224834); details: ERR reporter cells viability, CellTiter-Fluor, 17.5 h; series mostly up to 92.4 µM; note: potency is the fitted concentration of half-maximal effect; nearly all actives have a fitted effect of over 30% in size
# Method in brief: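 CellTiter-Fluor fluorescence measured; ERR cells; 17.5 h compound incubation at 37 C; 30 min reagent step.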
# [6] = qHTS assay to identify small molecule antagonists of the estrogen related receptor signaling pathway with the pleiotropic PPARgamma coactivator (PGC) from Tox21 10K library (AID 1224841; call rule not given here; note: potency is the fitted concentration of half-maximal effect; actives are mostly falling curves and most rising ones were filed inactive; nearly all actives have a fitted effect of over 50% in size); details: PGC/ERR reporter cell line, ONE-Glo luciferase, 18 h
# [7] = qHTS assay to identify small molecule antagonists of the estrogen related receptor (ERR) signaling pathway from Tox21 library (AID 1224848); details: ERR reporter cell line, luciferase antagonist mode, 18 h; note: potency is the fitted concentration of half-maximal effect; nearly all actives have a fitted effect of over 50% in size
# Method in brief: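 Cells: ERR line, 2,000/well; 6 h preincubation 37 C/5% CO2. Cpd in DMSO via pin tool; 18 h, 37 C. ONE-Glo, 30 min RT, luminescence.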
# [8] = qHTS RealTime-Glo MT Cell Viability Assay in HEK293 cells - 32 hour (AID 1224868); details: RealTime-Glo luminescence; series mostly up to 76.8 µM; note: top concentration of the series differs between compounds; nearly all actives have a fitted effect of over 50% in size
# Method in brief: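 HEK293 cells were seeded at 600 cells/well together with NanoLuc luciferase and cell-permeant prosubstrate, preincubated 5 h at 37 C/5% CO2, then given compound in DMSO by pintool. Luminescence from viable-cell prosubstrate reduction was read repeatedly over 40 h.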
# [9] = qHTS assay to identify small molecule agonists of the sonic hedgehog signaling (Shh) pathway - cell viability counter screen (AID 1259366); details: NIH/3T3 Gli1-Luc viability, CellTiter-Fluor, 24 h
# Method in brief: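 NIH/3T3-derived 3T3 Gli1-Luc cells (stable Gli1-responsive firefly luciferase reporter) were seeded, rested 4 hr at 37 C/5% CO2, then exposed to compounds in DMSO for 24 hr; viability was read by CellTiter-Fluor fluorescence in the same wells.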
# [10] = qHTS assay to identify small molecule antagonists of the sonic hedgehog signaling (Shh) pathway - cell viability counter screen (AID 1259367); details: NIH/3T3 Gli1-Luc viability, CellTiter-Fluor, 24 h; note: potency is the fitted concentration of half-maximal effect; nearly all actives have a fitted effect of over 55% in size
# Method in brief: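 NIH/3T3-derived Gli1-Luc reporter cells (2,000 per well) rested 4 hr at 37 C, then received DMSO compounds plus conditioned medium. After 23 hr of treatment, CellTiter-Fluor was added for 1 hr at 37C and fluorescence read.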
# [11] = qHTS assay to identify small molecule agonists of the androgen receptor (AR) signaling pathway in the presence of an antagonist - cell viability counter screen (AID 1259379); details: MDA-kb2 viability, CellTiter-Fluor, 16 h; note: potency is the fitted concentration of half-maximal effect; nearly all actives have a fitted effect of over 25% in size
# Method in brief: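 A CellTiter-Fluor read-out measured viability of MDA-kb2 reporter cells (MMTV promoter with AR and GR response elements). Treatment: nilutamide 3.0uM final with compounds at 15 concentrations, 16 hr, 37C, 0% CO2.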
# [12] = qHTS assay to identify small molecule agonists of the estrogen receptor alpha (ER-alpha) signaling pathway in the presence of an antagonist - cell viability counter screen (AID 1259386); details: VM7Luc4E2 viability, CellTiter-Fluor fluorescence, 22 h; series mostly up to 92.4 µM;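 note: potency is the fitted concentration of half-maximal effect; cells exposed to compounds for 22 h at 37 °C before the viability read; nearly all actives have a fitted effect of over 30% in size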
# Method in brief: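 ICI-182,780 at 10.0nM final accompanies the compound titration (15 concentrations, 22hr, 37C) on VM7Luc4E2 cells. The CellTiter-Fluor fluorescence readout runs in the same wells as the luciferase assay.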
# [13] = Human pregnane X receptor (PXR) small molecule agonists, qHTS cell viability counter screen (AID 1346977); details: PXR-Luc HepG2 viability, CellTiter-Fluor, 24 h
# Method in brief: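 PXR-Luc HepG2 cells in medium with 5% charcoal-stripped FBS were pre-incubated 5hr, then exposed to compounds for 24hr at 37C. Viability was read in the same wells by CellTiter-Fluor fluorescence, reagent added after 23hr with a 1hr incubation.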
# [14] = Caspase-3/7 induction in HepG2 cells by small molecules, qHTS cell viability counter screen (AID 1346981); details: CellTiter-Fluor fluorescence, 17 h; note: potency is the fitted concentration of half-maximal effect; nearly all actives have a fitted effect of over 30% in size
# Method in brief: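 Multiplexed with the caspase-3/7 assay: HepG2 cells, 16 hr compound treatment, CellTiter-Fluor viability detection by fluorescence.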
compound,measurement,setting,value
Nc1cc([N+](=O)[O-])cc([N+](=O)[O-])c1O,Potency,[1],active: 27.9 µM
same,Potency,[2],active: 62.5 µM
same,Potency,[3],active: 27.9 µM
same,Potency,[4],active: 27.9 µM
same,Potency,[5],active: 31.3 µM
same,Potency,[6],active: 55.7 µM
same,Potency,[7],active: 49.6 µM
same,Potency,[8],inactive
same,Potency,[9],active: 27.9 µM
same,Potency,[10],active: 31.3 µM
same,Potency,[11],active: 27.9 µM
same,Potency,[12],active: 31.3 µM
same,Potency,[13],active: 27.9 µM
same,Potency,[14],active: 27.9 µM
